Hit rate of the full screen: of about 350,000 compounds, about 600 (0.17%) were called active. The source calls these results inconclusive, neither active nor inactive.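 The calls were made as follows: active = every replicate shows inhibition of at least 40%; inconclusive = mean inhibition at least 40% but some replicate below; inactive = the rest.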
Assay: inhibitors of PGC1a acetylation signal, primary screen, cell-based, U2OS, AlphaScreen, inhibitor mode (AID 651687);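 also: 0% = neutral control wells and 100% = positive control wells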
Conditions: AlphaScreen anti-acetyl-lysine, at 15.6 µM, active compounds read high, with virally co-expressed GCN5 acetyltransferase

| SMILES | inhibition |
| --- | --- |
| CN(C)C(=O)Oc1noc2ccccc12 | inconclusive: 44.4% |
